# The list shows a part of the results, in another mix than the full data. The source made the active and inactive calls.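 Rule for the calls: active = inhibition above about 30% (limit read from the data); inactive = the rest.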
# Chains of the proteins cited; added tags and fusions are not shown.
# UniProt P63073, whole entry, looked up: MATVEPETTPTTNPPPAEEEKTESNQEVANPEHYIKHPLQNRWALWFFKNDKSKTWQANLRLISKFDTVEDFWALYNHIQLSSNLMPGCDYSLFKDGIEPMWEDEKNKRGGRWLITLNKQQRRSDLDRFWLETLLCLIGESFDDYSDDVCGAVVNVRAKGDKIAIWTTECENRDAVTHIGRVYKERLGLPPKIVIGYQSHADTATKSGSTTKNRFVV
# UniProt Q04637, whole entry, looked up: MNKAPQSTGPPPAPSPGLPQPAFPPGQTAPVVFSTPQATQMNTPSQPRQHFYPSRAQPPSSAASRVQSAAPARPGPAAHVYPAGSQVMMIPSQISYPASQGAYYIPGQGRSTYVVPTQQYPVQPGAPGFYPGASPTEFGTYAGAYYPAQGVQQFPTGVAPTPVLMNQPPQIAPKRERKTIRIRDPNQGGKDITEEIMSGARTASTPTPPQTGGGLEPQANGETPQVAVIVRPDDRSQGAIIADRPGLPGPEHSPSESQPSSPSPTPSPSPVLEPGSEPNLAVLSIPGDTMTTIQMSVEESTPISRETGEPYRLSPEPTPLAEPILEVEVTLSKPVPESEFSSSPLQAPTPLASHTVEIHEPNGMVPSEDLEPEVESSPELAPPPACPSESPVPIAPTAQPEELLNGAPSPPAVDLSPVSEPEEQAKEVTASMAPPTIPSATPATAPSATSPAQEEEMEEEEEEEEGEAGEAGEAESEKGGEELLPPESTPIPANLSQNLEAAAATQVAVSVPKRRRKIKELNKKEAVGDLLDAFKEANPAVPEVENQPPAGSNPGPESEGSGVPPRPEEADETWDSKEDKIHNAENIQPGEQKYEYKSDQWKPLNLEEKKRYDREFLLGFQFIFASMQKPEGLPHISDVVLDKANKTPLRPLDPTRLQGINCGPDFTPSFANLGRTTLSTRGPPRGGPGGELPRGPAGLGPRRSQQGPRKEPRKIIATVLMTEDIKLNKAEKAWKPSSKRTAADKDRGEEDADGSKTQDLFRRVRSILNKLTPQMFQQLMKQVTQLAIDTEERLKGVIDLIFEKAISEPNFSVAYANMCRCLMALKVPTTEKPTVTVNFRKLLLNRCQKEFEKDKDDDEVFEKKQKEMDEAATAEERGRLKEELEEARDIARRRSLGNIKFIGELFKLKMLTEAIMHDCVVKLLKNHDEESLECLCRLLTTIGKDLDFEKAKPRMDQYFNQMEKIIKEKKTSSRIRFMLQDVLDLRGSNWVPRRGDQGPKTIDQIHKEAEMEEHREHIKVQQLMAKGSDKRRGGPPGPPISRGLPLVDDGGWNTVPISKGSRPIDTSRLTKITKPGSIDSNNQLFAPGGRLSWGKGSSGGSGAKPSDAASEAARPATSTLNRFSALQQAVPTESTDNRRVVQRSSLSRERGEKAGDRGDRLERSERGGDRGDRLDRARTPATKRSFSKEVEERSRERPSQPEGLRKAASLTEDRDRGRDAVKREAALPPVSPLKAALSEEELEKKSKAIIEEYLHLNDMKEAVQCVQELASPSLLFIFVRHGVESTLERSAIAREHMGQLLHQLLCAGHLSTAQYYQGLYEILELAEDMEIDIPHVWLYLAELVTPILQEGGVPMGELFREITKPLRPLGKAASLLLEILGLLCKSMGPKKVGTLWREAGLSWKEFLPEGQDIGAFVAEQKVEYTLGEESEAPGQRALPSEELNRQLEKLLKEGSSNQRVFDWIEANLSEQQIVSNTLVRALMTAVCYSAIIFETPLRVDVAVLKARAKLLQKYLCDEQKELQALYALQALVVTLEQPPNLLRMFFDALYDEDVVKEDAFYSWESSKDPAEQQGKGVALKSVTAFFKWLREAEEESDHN
# Biological target: Eukaryotic translation initiation factor 4E (Mus musculus) + Eukaryotic translation initiation factor 4 gamma 1 (Homo sapiens) (UniProt P63073+Q04637)
# Assay: blockers of eIF4G binding by eIF4E – biochemical, uHTS, TR-FRET, eIF4GI fragment, primary screen (AID 782);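 note: 0% = full FRET control wells and 100% = background wells lacking eIF4GI fragment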
# Conditions: TR-FRET eIF4E-eIF4GI(517-606) binding, 2 h; at 21.7 µM; active compounds read high
row,SMILES,inhibition
1,CC1CCC(C(C)C)C(OP(=O)(Nc2ccccn2)c2ccccc2)C1 (stereo unspecified),inactive: 0%
2,Cc1nn(-c2ccccc2)c2c1P(=O)(N1CCOCC1)N(C)C(c1ccccc1)=N2 (stereo unspecified),inactive: -1.86%
3,CN(C)C1(CNC(=O)c2ccc(S(C)(=O)=O)cc2)CCCCC1,inactive: 3.73%
4,O=C(/C=C/c1ccccc1)OC1CN2CCC1CC2 (stereo unspecified),inactive: 2.14%
5,O=P1(Nc2ncccn2)COc2ccccc2OC1,inactive: -7.4%
6,Nc1cccc([As](=O)(O)c2ccccc2)c1,inactive: -5.19%
7,O=[As](O)(c1cccs1)c1cccs1,inactive: -2.55%
8,Cc1ccc(OCC(=O)OC2CN3CCC2CC3)cc1 (stereo unspecified),inactive: -1.01%
9,O=P1(Nc2ccc(Br)cn2)COc2ccccc2OC1,inactive: 2.67%
10,O=P1(Nc2ccccn2)COc2ccccc2OC1,inactive: 1.17%
11,CCOP(=O)(Nc1ccc(C)cn1)OCC,inactive: 0.43%
12,CC(C)(C)C(=O)NC(Sc1ncccn1)C(Cl)(Cl)Cl (stereo unspecified),inactive: -5.07%
13,Clc1n[nH]nc1-c1nn[nH][15n]1,inactive: -0.61%
14,CC(C)/C=N\N=C(\N)N[N+](=O)[O-],inactive: -2.31%
15,CN(C(=O)Cc1ccc(Cl)c(Cl)c1)[C@@H]1CCCC[C@H]1N1CCCC1,inactive: 7.12%
16,O=[As](O)(c1ccccc1Br)c1ccccc1Br,inactive: -1.07%
17,O=C(OC1CN2CCC1CC2)c1ccc(Cl)cc1 (stereo unspecified),inactive: -1.38%
18,O=[As](O)(O)c1cccnc1,inactive: -3.1%
19,COc1cc(C(=O)NCC2(N3CCOCC3)CCCCC2)cc(Cl)c1OC(C)C,inactive: -2.16%
20,Cc1cccc(OCC(=O)OC2CN3CCC2CC3)c1 (stereo unspecified),inactive: 0.89%
21,O=[As](O)(c1cccc(O)c1)c1cccc(O)c1,inactive: 6.7%
22,Nc1cccc2c([As](=O)(O)O)cccc12,inactive: 1.69%
23,Cc1ccc(NCCc2c([N+](=O)[O-])cc([N+](=O)[O-])cc2[N+](=O)[O-])cc1,inactive: 19.6%
24,CCCOP(=S)(Nc1nc(N)cc(=O)[nH]1)OCCC,inactive: 0.48%
25,CCOP(=O)(Nc1cccc2ccccc12)OCC,inactive: 1.44%
26,COc1cc(C2NCCC3(OCCO3)C2(C)C)cc(OC)c1OC (stereo unspecified),inactive: -2.06%

row,SMILES,inhibition
1,O=P(Nc1nccs1)(Oc1ccccc1)Oc1ccccc1,inactive: -2.37%
2,O=P(Nc1nccs1)(c1ccccc1)c1nc2ccccc2s1 (stereo unspecified),inactive: -0.01%
3,CCOP1(=S)c2c(C)nn(CCC#N)c2N=C(c2ccccc2F)N1C (stereo unspecified),inactive: -1.7%
4,CS(=O)(=O)c1cc([N+](=O)[O-])c2no[n+]([O-])c2c1,inactive: 27%
5,Nc1ccccc1[As](=O)(O)c1ccccc1,inactive: -3.8%
6,O=C(O)COc1ccc([As](=O)(O)O)cc1[N+](=O)[O-],inactive: 4.21%
7,NC(=O)Nc1ccc([As](=O)(O)O)cc1,inactive: -2.43%
8,CN(C(=O)Cc1ccccc1)[C@@H]1CC[C@]2(CCCO2)C[C@H]1N1CCCC1,inactive: -19.3%
9,CCOP1(=S)c2c(C)nn(CCC#N)c2N=C(c2ccc(F)cc2)N1C (stereo unspecified),inactive: 0.48%
10,O=[N+]([O-])c1ccc2c(c1)nnn2O,inactive: -5.12%
11,O=[As](O)(c1ccc(O)cc1)c1ccccc1O,inactive: -6.93%
12,C[As](=O)(O)c1cccc(C(=O)O)c1,inactive: 5.53%
13,Cc1ccc(OP(=O)(Nc2ccc([N+](=O)[O-])cn2)Oc2ccc(C)cc2)cc1,inactive: 0.83%
14,Cc1ccc2nc3c(c(C)c2c1)CC(C(Cl)Cl)S3 (stereo unspecified),inactive: 1.03%
15,ClCCSc1nnc(-c2cccnc2)o1,inactive: 2.83%
16,CC(C)c1ccc(OP(=O)(Nc2ccccn2)Oc2ccccc2F)cc1 (stereo unspecified),inactive: 0.1%
17,O=[N+]([O-])c1cc([N+](=O)[O-])c(-c2ccn[nH]2)s1,inactive: 25.1%
18,CC(C)NC(=O)NP(=O)(Oc1ccccc1)Oc1ccccc1,inactive: 3.79%
19,CCN(CC)C(=S)SC(NC=O)C(Cl)(Cl)Cl (stereo unspecified),inactive: -2.28%
20,Cc1c2c(nc3ccccc13)SC(C(Cl)Cl)C2 (stereo unspecified),inactive: 7.8%
21,Cc1cc(=O)[nH]c(N[N+](=O)[O-])n1,inactive: 2.53%
22,O=C(OC1CN2CCC1CC2)C12CC3CC(CC(C3)C1)C2 (stereo unspecified),inactive: -1.67%
23,COc1cc(I)ccc1[As](=O)(O)O,inactive: 2.7%
24,COc1ccc2nc(NP(=O)(c3ccccc3)c3ccccc3)sc2c1,inactive: -0.81%
25,COc1ccc(N/C(=N/P(=O)(N2CCOCC2)N2CCOCC2)N2CCOCC2)cc1,inactive: -1.75%
